Compound activity as filed in PubChem.
miR-122 sensor = inhibitors of miR-122 in Huh7 cells; Huh7 miR-122 Renilla luciferase sensor, 48 h; neutral wells = 0, positive control = 100; activation (reporter increase), % at 12.5 µM; actives 0.3% (n = 340,000); AID 602342;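 active = mean replicate activation score at least 90 and every replicate individually at or above 90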;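 note: higher luciferase means less miR-122 activity so hits act as miR-122 inhibitors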
MITF TRPM1 inh = reduces MITF-dependent TRPM1 promoter luciferase signal. actives 0.83% (n = 330,000). inhibition, % at 12.5 µM. SK-MEL-5 TRPM1 promoter luciferase, 24 h. AID 488899;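 active = mean inhibition across replicates of 60% or more, whatever share of single replicates reaches that level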
Yeast UUG start-1 = modulators of start codon recognition fidelity in yeast; AID 602363; activity score, % at 18.7 µM; S. cerevisiae UUG-firefly luciferase reporter, luminescence/redox ratio; 0.13% of 350,000 active;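 active = replicate mean at a twofold rise or more, about +100% in these data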;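 note: firefly luciferase made from a UUG start codon reports start codon fidelity; reporter light over untreated wells divided by growth signal over untreated wells; some hits fall short of that in this replicate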
PGC1a acetyl inh = PGC1a acetylation modulation, inhibitor mode; AID 651687; actives 0.17% (n = 350,000); inhibition, % at 15.6 µM; U2OS PGC1a acetylation, AlphaScreen anti-acetyl-lysine; with virally co-expressed GCN5 acetyltransferase;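 active = every replicate shows inhibition of at least 40%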
MITF TRPM1 HTS = increases MITF-driven TRPM1 promoter luciferase signal; SK-MEL-5 TRPM1-promoter luciferase, 24 h; % of positive control, neutral wells = 0; activation, % at 12.5 µM; actives 0.75% (n = 300,000); AID 588334;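 active = mean activation of at least 80% with every replicate also reaching 80%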
Wnt act = activates Wnt/beta-catenin signaling in a reporter cell assay | activator, plate reader | activation, % at 9.35 µM | AID 743398 | actives 1.2% (n = 300,000); in the data active = activation above about 30%, passing the limit was not always enough
Yeast UUG start-2 = alters UUG start codon use in yeast; activation, % at 38 µM; 540 tested, under 10 active; S. cerevisiae UUG-start firefly luciferase, luminescence, 4 h; 100% means double the DMSO signal; shares compounds with Yeast UUG start-1;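 active = signal increase whose fitted curve reaches an absolute level of 40 at a concentration under 10 µM; inactive = activity opposite to the expected increase, or the rest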
Of the large screens only hits and unclear results are named; the others gave an inactive call (follow-up assays come after a bar, where they were run). This is a sample that favours compounds with a hit; in the whole collection about 2.1% have one here.

C[C@@H](O)C#Cc1ccc2c(c1)O[C@@H](CN(C)Cc1cncnc1)[C@@H](C)CN([C@@H](C)CO)S2(=O)=O	Yeast UUG start-1 103 (no result: MITF TRPM1 inh, MITF TRPM1 HTS, Wnt act) | Yeast UUG start-2 inactive
CCCNC(=O)C[C@H]1CC[C@H]2[C@H](COc3ccc(NC(=O)Nc4c(C)noc4C)cc3C(=O)N2C)O1	none (no result: MITF TRPM1 inh, MITF TRPM1 HTS, Wnt act)
C/C=C/c1ccc2c(c1)O[C@@H](CN(C)Cc1cncnc1)[C@@H](C)CN([C@H](C)CO)S2(=O)=O	Yeast UUG start-1 110 (no result: miR-122 sensor, MITF TRPM1 inh, MITF TRPM1 HTS, Wnt act) | Yeast UUG start-2 inactive
CCC(=O)N(C)C[C@@H]1Oc2cc(C#Cc3ccccc3)ccc2S(=O)(=O)N([C@H](C)CO)C[C@@H]1C	none (no result: MITF TRPM1 inh, MITF TRPM1 HTS, Wnt act)
CC(=O)N(C)C[C@@H]1Oc2cc(C#C[C@H](C)O)ccc2S(=O)(=O)N([C@H](C)CO)C[C@@H]1C	none (no result: MITF TRPM1 inh, MITF TRPM1 HTS, Wnt act)
CC(=O)N(C)C[C@@H]1Oc2cc(C#C[C@@H](C)O)ccc2S(=O)(=O)N([C@@H](C)CO)C[C@@H]1C	Yeast UUG start-1 121 (no result: MITF TRPM1 inh, MITF TRPM1 HTS, Wnt act) | Yeast UUG start-2 inactive
CCC(=O)N(C)C[C@@H]1Oc2cc(C#Cc3ccccc3)ccc2S(=O)(=O)N([C@@H](C)CO)C[C@@H]1C	Yeast UUG start-1 183 (no result: MITF TRPM1 inh, MITF TRPM1 HTS, Wnt act) | Yeast UUG start-2 inactive
C[C@@H]1CN([C@H](C)CO)C(=O)Cc2cc(NC(=O)Nc3ccc4c(c3)OCO4)ccc2O[C@@H]1CN(C)Cc1ccc(C(=O)O)cc1	none (no result: MITF TRPM1 inh, MITF TRPM1 HTS, Wnt act)
COc1ccc(C(C#N)N2CCC(c3ccccc3)=N2)cc1 (stereo unspecified)	Yeast UUG start-1 183 | Yeast UUG start-2 inactive
COc1cc(C(C#N)N2N=C(c3ccccc3)CC2c2ccccc2)ccc1O (stereo unspecified)	none (no result: MITF TRPM1 HTS, Wnt act)
Cc1cc(O)ccc1C1(c2ccc(O)cc2C)OC(=O)c2ccccc21	Yeast UUG start-1 444 (no result: MITF TRPM1 HTS) | Yeast UUG start-2 inactive
O=C(Cc1ccccc1)NC(NNc1ccccc1)(C(F)(F)F)C(F)(F)F	Yeast UUG start-1 481 | Yeast UUG start-2 inactive
C[C@H]1CN([C@@H](C)CO)C(=O)c2cccc(NC(=O)c3ccncc3)c2O[C@H]1CN(C)Cc1ccc(Oc2ccccc2)cc1	none (no result: MITF TRPM1 inh, MITF TRPM1 HTS, Wnt act)
CO[C@H]1CN(C)C(=O)c2ccc(NC(=O)c3cnccn3)cc2OC[C@H](C)N(CCc2ccccc2)C[C@@H]1C	none (no result: miR-122 sensor, MITF TRPM1 inh, Yeast UUG start-1, MITF TRPM1 HTS, Wnt act)
O=C(O)C(c1ccccc1)C(c1ccccc1)c1ccccc1 (stereo unspecified)	Yeast UUG start-1 431 | Yeast UUG start-2 inactive
O=C(C[C@@H]1C=C[C@H](NC(=O)Nc2cc(F)ccc2F)[C@@H](CO)O1)Nc1ccc(-c2ccccc2)cc1	none (no result: miR-122 sensor, MITF TRPM1 inh, MITF TRPM1 HTS, Wnt act)
CO[C@H]1CN(C)C(=O)c2ccc(NC(=O)c3nc4ccccc4s3)cc2OC[C@@H](C)N(Cc2ccncc2)C[C@H]1C	Yeast UUG start-1 140 (no result: miR-122 sensor, MITF TRPM1 inh, MITF TRPM1 HTS, Wnt act) | Yeast UUG start-2 inactive
C[C@@H]1CN([C@H](C)CO)C(=O)c2cc(C#CC3CC3)cnc2O[C@H]1CN(C)C(=O)c1ccccc1	none (no result: MITF TRPM1 inh, MITF TRPM1 HTS, Wnt act)
CO[C@@H]1CN(C)C(=O)c2cc(NC(=O)C3CC3)ccc2OC[C@H](C)N(C(=O)c2ccncc2)C[C@H]1C	none (no result: MITF TRPM1 inh, MITF TRPM1 HTS, Wnt act)
C[C@@H]1CN([C@@H](C)CO)C(=O)Cc2cc(NS(=O)(=O)c3ccccc3)ccc2O[C@H]1CN(C)Cc1ccc(C(F)(F)F)cc1	Yeast UUG start-1 159 (no result: MITF TRPM1 inh, MITF TRPM1 HTS, Wnt act) | Yeast UUG start-2 inactive
C[C@@H]1CN([C@@H](C)CO)C(=O)Cc2cc(NS(=O)(=O)c3ccccc3)ccc2O[C@@H]1CN(C)Cc1ccc(C(F)(F)F)cc1	none (no result: MITF TRPM1 inh, MITF TRPM1 HTS, Wnt act)
C[C@H]1CCCCO[C@@H](CN(C)Cc2ccccc2)[C@@H](C)CN([C@@H](C)CO)C(=O)c2cc(NC(=O)c3ccccc3)ccc2O1	Yeast UUG start-1 147 (no result: MITF TRPM1 inh, MITF TRPM1 HTS, Wnt act) | Yeast UUG start-2 inactive
CC(C)NC(=O)N(C)C[C@@H]1Oc2ccc(NC(=O)Nc3cccc4ccccc34)cc2C(=O)N([C@@H](C)CO)C[C@@H]1C	Yeast UUG start-1 151 (no result: MITF TRPM1 inh, MITF TRPM1 HTS, Wnt act) | Yeast UUG start-2 inactive
C[C@@H]1CCCCO[C@@H](CN(C)Cc2ccncc2)[C@@H](C)CN([C@@H](C)CO)C(=O)c2cc(NC(=O)Nc3ccccc3)ccc2O1	none (no result: MITF TRPM1 inh, Yeast UUG start-1, MITF TRPM1 HTS, Wnt act)
Cc1cccc(S(=O)(=O)N2CCCCN3[C@H](CO)[C@H](c4ccc(C#C[C@@H](C)O)cc4)[C@H]3C2)c1	none (no result: MITF TRPM1 inh, MITF TRPM1 HTS, Wnt act)
C/C(=N\NC(=O)CC1N=C(Cc2ccccc2)NNC1=O)c1ccc(C)cc1 (stereo unspecified)	Yeast UUG start-1 372 (no result: PGC1a acetyl inh, Wnt act) | Yeast UUG start-2 inactive
Cc1cnn(Cc2ccccc2)c1N	Yeast UUG start-1 605 (no result: MITF TRPM1 HTS, Wnt act) | Yeast UUG start-2 inactive
O=C(Nc1ccccc1)NC1(c2cn(CC(=O)N3CCN(c4ccccc4)CC3)nn2)CCCCC1	Yeast UUG start-1 124 (no result: miR-122 sensor, MITF TRPM1 inh, MITF TRPM1 HTS, Wnt act) | Yeast UUG start-2 inactive
CCCCN(C(=O)NC(=O)Nc1ccccc1OCC)S(C)(=O)=O	none (no result: Wnt act)
CCOc1ccccc1NC(=O)NC(=O)N(C)S(C)(=O)=O	Yeast UUG start-1 436 | Yeast UUG start-2 inactive
O=C(CNC(=O)c1ccco1)N=Nc1c(O)n(CCc2ccccc2)c2ccccc12	Yeast UUG start-1 229 (no result: MITF TRPM1 inh) | Yeast UUG start-2 inactive
CCn1c(O)c(N=NC(=O)CNC(=O)Cc2ccccc2)c2ccccc21	none
CO[C@@H]1CN(C)C(=O)c2ccc(NC(=O)C3CCCCC3)cc2OC[C@@H](C)N(Cc2cccnc2)C[C@@H]1C	none (no result: miR-122 sensor, MITF TRPM1 inh, Yeast UUG start-1, MITF TRPM1 HTS, Wnt act)
